Laboratory results: PMC10709440, “High-throughput ligand profile characterization in novel cell lines expressing seven heterologous insect olfactory receptors for the detection of volatile plant biomarkers” (Scientific Reports, 2023)
Like-named read-outs stand apart in the source and are kept apart here.

How the values were obtained:
Drosophila OR13a = target: T1, Drosophila OR13a (Drosophila melanogaster, UniProt Q9VXL0); assay: Calcium ion fluorescence (GCaMP6) assay, OR13a stable HEK293 cell line; assay type: cell-based; conditions: for DF norm AVERAGE OR13a: normalized fluorescence change, values below 0.05 threshold given as 0
T1 construct: expressed in transfected cells
T1 sequence (Q9VXL0 1-418): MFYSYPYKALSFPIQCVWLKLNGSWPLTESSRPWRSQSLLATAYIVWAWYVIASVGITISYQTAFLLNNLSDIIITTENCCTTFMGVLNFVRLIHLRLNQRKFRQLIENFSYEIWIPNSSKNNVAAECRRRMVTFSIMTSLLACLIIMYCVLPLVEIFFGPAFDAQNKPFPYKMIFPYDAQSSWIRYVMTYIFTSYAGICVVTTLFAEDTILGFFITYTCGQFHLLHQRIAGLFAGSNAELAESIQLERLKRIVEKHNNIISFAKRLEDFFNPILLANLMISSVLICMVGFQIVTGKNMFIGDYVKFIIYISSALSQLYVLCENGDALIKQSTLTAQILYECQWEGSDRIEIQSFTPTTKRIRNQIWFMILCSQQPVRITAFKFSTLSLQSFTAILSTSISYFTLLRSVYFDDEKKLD
T1 sequence (Q9VNB5 1-486 partner): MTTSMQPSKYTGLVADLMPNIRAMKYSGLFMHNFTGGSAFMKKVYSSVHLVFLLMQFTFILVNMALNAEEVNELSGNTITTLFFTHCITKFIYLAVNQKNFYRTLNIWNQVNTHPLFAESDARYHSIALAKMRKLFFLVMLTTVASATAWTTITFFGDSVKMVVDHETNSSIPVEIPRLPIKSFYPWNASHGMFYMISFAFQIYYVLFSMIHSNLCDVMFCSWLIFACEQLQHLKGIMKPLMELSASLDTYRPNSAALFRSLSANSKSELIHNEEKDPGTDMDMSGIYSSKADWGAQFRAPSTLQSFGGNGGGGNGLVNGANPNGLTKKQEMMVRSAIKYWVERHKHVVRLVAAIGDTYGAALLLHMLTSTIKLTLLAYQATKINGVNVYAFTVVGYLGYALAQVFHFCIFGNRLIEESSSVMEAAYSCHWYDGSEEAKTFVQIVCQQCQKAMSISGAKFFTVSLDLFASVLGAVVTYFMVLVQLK
Method: (§1) These VUAA1 normalized ∆F values were used to compare the different receptors and ligands.
(§2) The concentration-dependent effect of the reference ligands on their cognate cell lines was examined in more detail. Twelve different ligand concentrations were measured on each cell line in an overall 0.01 μM to 100 μM concentration range with 5 repetitions with three technical replicates each time.
(§3) Twelve thousand to 18,000 cells were plated into each well of a black wall, transparent bottom 384-well microplate (Greiner) 48 h or 72 h before the measurements and were simultaneously treated with 1 μg/mL doxycycline. […] The plate has 24 columns, thus we could record responses in up to eight different cell lines in each plate. On the day of the experiment, the growth medium was replaced with 20 µL assay buffer/well (140 mM NaCl, 5 mM KCl, 2 mM CaCl2, 1 mM MgCl2, 5 mM HEPES-Na, 20 mM glucose, pH 7.3, 340 mOsm). […] Baseline fluorescence (F0) was recorded for 5 s, after which 7 µL VOC buffer (140 mM NaCl, 5 mM KCl, 2 mM CaCl2, 1 mM MgCl2, 5 mM HEPES-Na, 31 mM glucose, 0.1% DMSO, pH 7.3, 340 mOsm) was injected into each well in one row and the fluorescence response was recorded for an additional 30 s, at a rate of one read/sec. VOC solutions (VOC buffer with 4× concentration of the final measured VOC concentration, 9 µL/well was injected) were measured on the same wells in a second round with the same protocol. Each individual concentration of a specific VOC sample was recorded in three wells for the same cell line on the same microplate. The raw data were exported in xls file format, F0 and FMAX values, and the fluorescence intensity changes (∆F) were calculated in Excel (Microsoft) (Supplementary file Data summary.xlsx) using the following equation: ΔF=FMAX-F0/F0 (see also Fig. 1C). On each plate, we recorded the response of each cell line to 50 µM VUAA1. The average of these ∆F values of each cell line were used to calculate the VUAA1-normalized values for the rest of the plate, by dividing VOC response ∆F values by the average VUAA1 response ∆F value of the corresponding OR cell line. Each VOC-OR combination was measured three times as technical replicates. […] The average of these replicates were used as one ∆F and VUAA1-normalized ∆F in the following analysis.
(§4) In the next rows we tested the reference VOCs (or other VOCs known to activate the corresponding cell lines), in order to test if all cell lines are responsive. The remaining rows were used to test VOCs with unknown effect.
(§5) The recorded FMAX, F0, ∆F, VUAA1-normalized ∆F values, as well as the OR name, the name of the tested sample, and the final concentration for each well were copied into supplementary file Data summary.xlsx, that was used to summarize all the plates recorded. Here, the averages of the measurements were calculated for each receptor-VOC-concentration combination.

Drosophila OR85b = target: T2, Drosophila OR85b (Drosophila melanogaster, UniProt Q9VHQ7); assay: Calcium ion fluorescence (GCaMP6) assay, OR85b stable HEK293 cell line; assay type: cell-based; conditions: for Average response: OR85b cell line, VUAA1-normalized response, mean of biological replicates; for DF norm AVERAGE OR85b: normalized fluorescence change, values below 0.05 threshold given as 0
T2 construct: expressed in transfected cells
T2 sequence (Q9VHQ7 1-390): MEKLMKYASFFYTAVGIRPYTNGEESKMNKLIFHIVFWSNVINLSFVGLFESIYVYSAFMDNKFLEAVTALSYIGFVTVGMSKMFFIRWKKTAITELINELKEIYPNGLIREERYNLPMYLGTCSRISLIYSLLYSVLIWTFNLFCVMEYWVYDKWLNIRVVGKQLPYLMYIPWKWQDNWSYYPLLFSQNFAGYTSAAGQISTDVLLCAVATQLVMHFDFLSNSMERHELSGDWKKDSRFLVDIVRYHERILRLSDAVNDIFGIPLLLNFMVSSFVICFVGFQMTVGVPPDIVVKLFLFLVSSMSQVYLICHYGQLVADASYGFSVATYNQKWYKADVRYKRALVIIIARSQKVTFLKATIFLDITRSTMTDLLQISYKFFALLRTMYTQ
T2 sequence (Q9VNB5 1-486 partner): T1 sequence (Q9VNB5 1-486 partner)
Method: as §1, §2, §3, §4, §5

OR47a = test system: OR47a; design: method as in earlier work; conditions: DoOR database value; ref DoOR; cited from earlier work
OR98a = test system: OR98a; design: method as in earlier work; conditions: DoOR database value; ref DoOR; cited from earlier work
[1] = HEK293, read-out: OR13a Average response (VUAA1-normalized)
[2] = HEK293, read-out: OR13a response (VUAA1-normalized response)
[3] = HEK293, read-out: OR85b response (VUAA1-normalized response)

In the case of `CC(=O)CCC=C(C)C` [6-methyl-5-hepten-2-one], the activation at 1 µM (Drosophila OR13a; [1]) is reported as 0%, the activation at 10 µM (Drosophila OR13a; [1]) is reported as 0% and the activation at 100 µM (Drosophila OR13a; [1]) is reported as 0.768%. It also gave an activation at 1 µM (Drosophila OR13a; [2]) of 0%, an activation at 10 µM (Drosophila OR13a; [2]) of 0% and an activation at 100 µM (Drosophila OR13a; [2]) of 0%. For the same compound, the “DF norm AVERAGE OR13a” value (Drosophila OR13a; concentration 1) was 0, the “DF norm AVERAGE OR13a” value (Drosophila OR13a; concentration 10) was 0 and the “DF norm AVERAGE OR13a” value (Drosophila OR13a; concentration 100) was 0. The activation at 1 µM (Drosophila OR85b; [3]) was 0%, the activation at 10 µM (Drosophila OR85b; [3]) was 0% and the activation at 100 µM (Drosophila OR85b; [3]) was 0%. The Average response (Drosophila OR85b; cc. 1 µM) was 0.00, the Average response (Drosophila OR85b; cc. 10 µM) was 0.00 and the Average response (Drosophila OR85b; cc. 100 µM) was 0.037. The “DF norm AVERAGE OR85b” value (Drosophila OR85b; concentration 1) was 0, the “DF norm AVERAGE OR85b” value (Drosophila OR85b; concentration 10) was 0 and the “DF norm AVERAGE OR85b” value (Drosophila OR85b; concentration 100) was 0. For the same compound, the “OR47a DoOR response” value (OR47a) was 0.10 and the “OR98a DoOR response” value (OR98a) was 0.69.
